{"source": "patent US20100150842A1", "about": "“Method and Kit for Detecting Resistance in Living Organisms” (priority 2007, published 2010)", "origin": "cited, not measured here", "test_system": "fish and aquatic invertebrates", "conditions": "if it reaches water bodies; cited from earlier work"}
{"smiles": "N#Cc1cc(Br)c(O)c(Br)c1", "note": "[Bromoxynil]", "values": [{"measurement": "toxicity to fish and aquatic invertebrates", "result": "toxic"}]}
